Assay results as given in a protein production outcome set (Wang et al. 2014).

Experiment: label from the status in PepcDB records

Row | Sequence | protein production
1 | MGRARDAILDALENLTAEELKKFKLKLLSVPLREGYGRIPRGALLSMDALDLTDKLVSFYLETYGAELTANVLRDMGLQEMAGQLQAATHQGSGAAPAGIQAPPQSAAKPGLHFIDQHRAALIARVTNVEWLLDALYGKVLTDEQYQAVRAEPTNPSKMRKLFSFTPAWNWTCKDLLLQALRESQSYLVEDLERS | failed
2 | MEGERKNNNKRWYFTREQLENSPSRRFGVDPDKELSYRQQAANLLQDMGQRLNVSQLTINTAIVYMHRFYMIQSFTQFPGNSVAPAALFLAAKVEEQPKKLEHVIKVAHTCLHPQESLPDTRSEAYLQQVQDLVILESIILQTLGFELTIDHPHTHVVKCTQLVRASKDLAQTSYFMATNSLHLTTFSLQYTPPVVACVCIHLACKWSNWEIPVSTDGKHWWEYVDATVTLELLDELTHEFLQILEKTPNRLKRIWNWRACEAAKKTKADDRGTDEKTSEQTILNMISQSSSDTTIAGLMSMSTSTT | failed
